This assay concerns the target chemokine receptors on THP-1 cells. Put plainly: binding to THP-1 cells.

For KQK (peptide), the binding sites per cell (sites per cell) is 15000.

For the origin of these results see patent publication US7238711.
